# Assay results from PubChem BioAssay AID887 (National Center for Advancing Translational Sciences (NCATS), 2007).
# Sequences of proteins named here, by UniProt entry; tags and fusion partners are left off.
# UniProt P16050, whole entry: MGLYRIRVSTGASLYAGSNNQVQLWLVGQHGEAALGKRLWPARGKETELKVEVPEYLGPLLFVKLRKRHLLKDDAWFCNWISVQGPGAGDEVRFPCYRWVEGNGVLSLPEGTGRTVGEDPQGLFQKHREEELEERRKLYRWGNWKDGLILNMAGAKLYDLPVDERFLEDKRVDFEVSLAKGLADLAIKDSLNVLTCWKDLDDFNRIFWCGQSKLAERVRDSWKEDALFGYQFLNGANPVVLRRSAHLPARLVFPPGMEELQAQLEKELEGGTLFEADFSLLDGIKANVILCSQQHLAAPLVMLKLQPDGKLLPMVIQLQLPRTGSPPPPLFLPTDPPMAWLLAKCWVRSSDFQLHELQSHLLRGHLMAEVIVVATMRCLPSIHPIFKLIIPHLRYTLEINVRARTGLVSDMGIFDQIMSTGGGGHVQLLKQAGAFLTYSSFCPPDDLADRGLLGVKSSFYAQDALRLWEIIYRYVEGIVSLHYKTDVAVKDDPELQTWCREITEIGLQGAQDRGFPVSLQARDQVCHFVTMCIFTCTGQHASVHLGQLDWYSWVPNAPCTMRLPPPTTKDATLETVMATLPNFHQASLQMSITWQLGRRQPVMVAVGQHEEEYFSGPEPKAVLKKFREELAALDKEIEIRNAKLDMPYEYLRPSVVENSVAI
# This is a selection; strong and weak results do not stand in their true shares. Records with an inconclusive call do not appear. Calls of active or inactive are those of the source. Calls come from the whole dose curve; as a rule, active = well fitted inhibition curve with a large enough effect; inconclusive = small, poorly fitted or top-dose-only effect; inactive = no such curve, though single readings can be large or run the other way.
# Molecular target: Polyunsaturated fatty acid lipoxygenase ALOX15 (Homo sapiens) (UniProt P16050)
# Assay: qHTS Assay for Inhibitors of 15-hLO (15-human lipoxygenase); note: nearly all actives have a fitted effect of over 55% in size
# Conditions: purified 15hLO-1, xylenol orange hydroperoxide absorbance; at 57.1 µM (top of the series) unless noted
# % is set by controls: 0 for no effect and ±100 for the full control effect.
row,SMILES,"activity change, negative = inhibition"
1,COc1ccc(NC2CCN(CCc3ccccc3)CC2)c(OC)c1,inactive: -26.1%
2,O=C(OC1CN2CCC1CC2)C1c2ccccc2Oc2ccccc21 (stereo unspecified),inactive: -0.0659%
3,CCOP(=O)(Cl)Cl,inactive: -16.9%
4,NC1CCCCC1.NP(=O)(O)N(CCCl)CCCl,inactive: 10.2% [at 11.4 µM]
5,N#CC1(Nc2ccccc2)CCN(CCc2ccccc2)CC1,inactive: 7.18%
6,ClCCOP(OCCCl)OCCCl,inactive: -5.47%
7,N/C(=N\O)c1c(N)no[n+]1[O-],inactive: 8.27%
8,CCOc1ncccc1C(=O)NCC1(N2CCOCC2)CCCCC1,inactive: 2.08%
9,O=C(O)C1(Nc2ccccc2)CCN(Cc2ccccc2)CC1,inactive: 4.52% [at 11.4 µM]
10,CCC(CO)(C(=O)OC1CN2CCC1CC2)c1ccccc1 (stereo unspecified),inactive: -0.339%
11,Fc1ccccc1NC1CCN(Cc2ccccc2)CC1,inactive: -9.76%
